Laboratory results published in patent US10214512B2, “Factor XIA inhibitors” (MERCK SHARP & DOHME CORP., priority 2015, dated 2019).

Chains of the proteins cited; added tags and fusions are not shown. Residues count along the entry.
UniProt P03951, 19-387 partner: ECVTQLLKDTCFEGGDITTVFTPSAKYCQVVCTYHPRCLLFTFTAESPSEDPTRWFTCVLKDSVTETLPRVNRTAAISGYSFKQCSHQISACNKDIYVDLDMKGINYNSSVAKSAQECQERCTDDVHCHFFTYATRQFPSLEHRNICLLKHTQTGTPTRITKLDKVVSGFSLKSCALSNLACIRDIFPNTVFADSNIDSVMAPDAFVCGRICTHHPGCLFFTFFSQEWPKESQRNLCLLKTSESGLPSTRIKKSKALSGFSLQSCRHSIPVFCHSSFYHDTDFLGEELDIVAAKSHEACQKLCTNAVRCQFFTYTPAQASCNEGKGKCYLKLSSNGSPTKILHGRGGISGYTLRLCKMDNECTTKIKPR
UniProt P03951, 388-625: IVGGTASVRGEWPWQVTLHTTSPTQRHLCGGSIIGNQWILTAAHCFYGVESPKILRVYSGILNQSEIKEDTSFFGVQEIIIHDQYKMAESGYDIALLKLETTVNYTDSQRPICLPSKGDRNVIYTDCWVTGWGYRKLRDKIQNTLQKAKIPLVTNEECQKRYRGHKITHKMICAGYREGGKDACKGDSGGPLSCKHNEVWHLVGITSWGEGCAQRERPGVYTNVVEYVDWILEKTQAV

Target: purified human Factor XIa (Homo sapiens (Human), UniProt P03951)
Assay: Factor XIa Assay
Format: biochemical
Conditions: purified human Factor XIa 40 pM; substrate Z-Gly-Pro-Arg-AFC 100 μM; 50 mM HEPES pH 7.4; read-out: Human FXIa Ki
Experimental: The effectiveness of a compound of the present invention as an inhibitor of Coagulation Factor XIa can be determined using a relevant purified serine protease, and an appropriate synthetic substrate. The rate of hydrolysis of the chromogenic or fluorogenic substrate by the relevant serine protease was measured both in the absence and presence of compounds of the present invention. Assays were conducted at rt or at 37° C. […] A decrease in the rate of fluorescence change in the presence of inhibitor is indicative of enzyme inhibition. Such methods are known to one skilled in the art. The results of this assay are expressed as the inhibitory constant, Ki.
Factor XIa determinations were made in 50 mM HEPES buffer at pH 7.4 containing 150 mM NaCl, 5 mM CaCl2, and 0.1% PEG 8000 (polyethylene glycol; JT Baker or Fisher Scientific). Determinations were made using purified human Factor XIa at a final concentration of 40 pM (Sekisui Diagnostics) and he synthetic substrate, Z-Gly-Pro-Arg-AFC, TFA salt (Sigma #C0980) at a concentration of 100 μM.
Times required to achieve equilibration between enzyme and inhibitor were determined in control experiments. Initial velocities of product formation in the absence (Vo) or presence of inhibitor (Vi) were measured. Assuming competitive inhibition, and that unity is negligible compared Km/[S], [I]/e, and [I]/e (where [S], [I], and e respectively represent the total concentrations, of substrate, inhibitor and enzyme), the equilibrium constant (Ki) for dissociation of the inhibitor from the enzyme can be obtained from the dependence of Vo/Vi on [I] shown in the following equation.

Row | SMILES | Ki [nM]
1 | COC(=O)Nc1ccc2c(c1)NC(=O)[C@H](C)CCC[C@@H](c1ccc(-c3cc(F)ccc3OC(F)(F)F)c[n+]1[O-])c1nc-2c(C)[nH]1 (single isomer, unassigned) [Example 149-d] | 60.1
2 | COC(=O)Nc1ccc2c(c1)NC(=O)C(C)CCCC(c1cc(OC)c(-c3c(F)ccc(Cl)c3F)c[n+]1[O-])c1cccc-2c1 (single isomer, unassigned) [Example 88-b, 5-(3-Chloro-2,6-difluorophenyl)-4-methoxy-2-(2^4-((methoxycarbonyl)amino)-5-methyl-4-oxo-3-aza-1(1,3),2(1,2) -dibenzenacyclononaphane-9-yl)pyridine 1-oxide] | 0.75
3 | COC(=O)Nc1ccc2c(c1)NC(=O)[C@@H](C)CCC[C@H](c1ccc(-c3c(OC(F)F)ccc(F)c3F)c[n+]1[O-])c1nc-2c(C)[nH]1 (single isomer, unassigned) [Example 150-c] | 0.37
4 | COC(=O)Nc1ccc2c(c1)NC(=O)C(C)CCCC(c1ccc(-c3c(F)ccc(Cl)c3F)cn1)c1cc-2ccn1 (single isomer, unassigned) [Example 95-a, Methyl (9-(5-(3-chloro-2,6-difluorophenyl)pyridin-2-yl)-5-methyl-4-oxo-3-aza-1(4,2)-pyridina-2(1,2)-benzenacyclononaphane-2^4-yl)carbamate] | 2.7
5 | CCc1[nH]c2nc1-c1ccc(NC(=O)OC)cc1NC(=O)[C@@H](C)CCC[C@@H]2c1ccc(-c2c(F)cccc2OC(F)F)c[n+]1[O-] (single isomer, unassigned) [Example 146-c] | 0.29
6 | COC(=O)Nc1ccc2c(c1)NC(=O)[C@H](C)CCC[C@@H](c1ccc(-c3c(F)ccc(Cl)c3F)c[n+]1[O-])c1cc-2ncc1F (single isomer, unassigned) [Example 76-d] | 110
7 | COC(=O)Nc1ccc2c(c1)NC(=O)C(C)CCCC(c1ccc(-c3c(F)ccc(Cl)c3F)c[n+]1[O-])c1nc-2c[nH]1 (single isomer, unassigned) [Example 114-c, (Z)-5-(3-chloro-2,6-difluorophenyl)-2-(2^4-((methoxycarbonyl)amino)-5-methyl-4-oxo-1^1H-3-aza-1(4,2)-imidazola-2(1,2) -benzenacyclononaphane-9-yl)pyridine 1-oxide] | 0.3
8 | COC(=O)Nc1ccc2c(c1)NC(=O)CCCC[C@H](c1ccc(-c3c(F)ccc(Cl)c3F)c[n+]1[O-])c1ccc(F)c-2c1 (single isomer, unassigned) [Example 68] | 0.52
9 | COC(=O)Nc1ccc2c(c1)NC(=O)CC[C@H](C)C[C@@H](c1ccc(-c3c(F)cccc3OC(F)F)c[n+]1[O-])c1nc-2c(C)[nH]1 (single isomer, unassigned) [Example 152-d] | 104
10 | CCc1[nH]c2nc1-c1ccc(NC(=O)OC)cc1NC(=O)[C@H](C)CCC[C@@H]2c1ccc(-c2c(F)cccc2OC(F)F)c[n+]1[O-] (single isomer, unassigned) [Example 146-a] | 0.14
11 | COC(=O)Nc1ccc2c(c1)NC(=O)CCCC[C@H](c1ccc(-c3c(F)cccc3-n3cc(C(F)(F)F)cn3)c[n+]1[O-])c1nc-2c[nH]1 (single isomer, unassigned) [Example 115] | 0.53
12 | CCc1[nH]c2nc1-c1ccc(NC(=O)OC)cc1NC(=O)[C@H](C)CCC[C@H]2c1ccc(-c2c(F)cccc2OC(F)F)c[n+]1[O-] (single isomer, unassigned) [Example 146-b] | 12.1
13 | COC(=O)Nc1ccc2c(c1)NC(=O)C(C)CCCC(c1cc(OC)c(-c3c(F)ccc(Cl)c3F)c[n+]1[O-])c1cccc-2c1 (single isomer, unassigned) [Example 88-d, 5-(3-Chloro-2,6-difluorophenyl)-4-methoxy-2-(2^4-((methoxycarbonyl)amino)-5-methyl-4-oxo-3-aza-1(1,3),2(1,2) -dibenzenacyclononaphane-9-yl)pyridine 1-oxide] | 0.57
14 | COC(=O)Nc1ccc2c(c1)NC(=O)CCCC[C@H](c1ccc(-c3cc(Cl)ccc3-n3cc(C4CC4)nn3)c[n+]1[O-])c1cccc-2c1 (single isomer, unassigned) [Example 38] | 0.11
15 | COC(=O)Nc1ccc2c(c1)NC(=O)CCCCC(c1ccc(-c3cc(Cl)ccc3-n3cc(C(=O)O)nn3)cn1)c1cccc-2c1 (single isomer, unassigned) [Example 92-a, 1-(4-chloro-2-(6-(2^4-((methoxycarbonyl)amino)-4-oxo-3-aza-1(1,3),2(1,2) -dinenzenacyclononaphane-9-yl)pyridin-3-yl)phenyl)-1H-1,2,3-triazole-4-carboxylic acid] | 0.44
16 | COC(=O)Nc1ccc2c(c1)NC(=O)CCCCC(c1ccc(-c3c(F)cccc3OC(F)(F)F)c[n+]1[O-])c1nc-2c(C)[nH]1 (single isomer, unassigned) [Example 131] | 0.22
17 | COC(=O)Nc1ccc2c(c1)NC(=O)CC[C@H](C)C[C@@H](c1ccc(-c3c(F)ccc(Cl)c3F)c[n+]1[O-])c1nc-2c(C)[nH]1 (single isomer, unassigned) [Example 151-d] | > 875
18 | COC(=O)Nc1ccc2c(c1)NC(=O)C(C)CCCC(c1ccc(-c3c(F)ccc(Cl)c3F)c[n+]1[O-])c1nc-2c[nH]1 (single isomer, unassigned) [Example 114-a, (Z)-5-(3-chloro-2,6-difluorophenyl)-2-(2^4-((methoxycarbonyl)amino)-5-methyl-4-oxo-1^1H-3-aza-1(4,2)-imidazola-2(1,2) -benzenacyclononaphane-9-yl)pyridine 1-oxide] | 0.17
19 | COC(=O)Nc1ccc2c(c1)NC(=O)[C@@H](C)CCC[C@H](c1ccc(-c3c(F)ccc(Cl)c3F)c[n+]1[O-])c1cc-2ncc1F (single isomer, unassigned) [Example 76-b] | 1.37
